{"source": "PubChem BioAssay (Tox21)", "note": "The list shows a part of the results, in another mix than the full data. Inconclusive results are not listed. Where a call stands in place of a potency, no number is given. The source made the active and inactive calls. The call rests on the fitted dose curve. Potency means the concentration at half of the fitted maximal effect.", "data": [{"assay": "qHTS assay to identify small molecule agonists of the progesterone receptor (PR) signaling pathway - cell viability counter screen (AID 1346799); further: nearly all actives have a fitted effect of over 45% in size", "details": "PR-UAS-bla HEK293T viability, CellTiter-Glo luminescence, 16 h; series mostly up to 92.4 µM", "from_the_text": "National Center for Advancing Translational Sciences [NCATS]\nNIH Chemical Genomics Center [NCGC]\nU.S. Environmental Protection Agency [EPA]\nNational Institutes of Environmental Health Sciences [NIEHS]\nNational Toxicology Program [NTP]\nU.S. Food and Drug Administration [FDA]\nProgesterone receptor (PR), a nuclear hormone receptor, plays an important role in development, metabolic homeostasis and reproduction. It is activated by the steroid hormone progesterone. Endocrine disrupting chemicals (EDCs) and their interactions with steroid hormone receptors like PR causes disruption of normal endocrine function. To identify the compounds that stimulate PR signaling, a PR-UAS-bla GripTite cell line i.e. PR-UAS-bla HEK293T (Invitrogen, Carlsbad, CA, USA) containing a beta-lactamase reporter gene under the control of an UAS response element was used to screen Tox21 10K compound library. The cytotoxicity of the Tox21 compound library against the PR-bla cell line was tested in parallel by measuring the cell viability using CellTiter-Glo assay in the same wells.\nTox21 Assay Protocol Summary:\nPR-UAS-bla HEK293T cells were dispensed at 3,000 cells/5 uL of assay medium containing 2% charcoal stripped FBS per well into black wall/clear-bottom 1536-well plates using a Multidrop Combi (ThermoFisher Scientific, Waltham, MA) dispenser. After the assay plates were incubated at a 37C and 5% CO2 for 6 hr, 23 nL of compounds dissolved in DMSO, positive controls or DMSO only was transferred to the assay plate by a Pintool station (Kalypsys, San Diego, CA). The plates were incubated at 37C and 5% CO2 for 16 hr. Then 1 uL of LiveBLAzer B/G FRET substrate was added using a Flying Reagent Dispenser (FRD, Aurora Discovery, San Diego, CA), the plates were incubated at room temperature for 2 hours, and fluorescence intensity was measured by an Envision plate reader (PerkinElmer, Shelton, CT). For cell viability readout that measures cytotoxicity, 4 uL/well of CellTiter-Glo reagent was added into the assay plates using a FRD. After 30 min incubation at room temperature, the luminescence intensity in the plates was measured using a ViewLux (PerkinElmer) plate reader.", "values": [{"smiles": "O=C(Cl)Oc1ccccc1", "Potency": "inactive"}, {"smiles": "O=P(Cl)(Cl)c1ccccc1", "Potency": "inactive"}, {"smiles": "COP(=S)(Cl)OC", "Potency": "inactive"}, {"smiles": "CC(C)CCCCCCCOP(OCCCCCCCC(C)C)Oc1ccccc1", "Potency": "inactive"}, {"smiles": "O=[N+]([O-])c1ccc(S(=O)(=O)O)c([N+](=O)[O-])c1", "Potency": "inactive"}, {"smiles": "O=P(Cl)(Oc1ccccc1)Oc1ccccc1", "Potency": "inactive"}, {"smiles": "O=[As]c1ccccc1", "note": "(centres undefined)", "Potency": "active: 2.73 µM"}, {"smiles": "O=C(Cl)OCCOC(=O)Cl", "Potency": "inactive"}, {"smiles": "O=[p+]1oc2ccccc2c2ccccc21", "note": "(centres undefined)", "Potency": "inactive"}, {"smiles": "CN(C(=O)Cc1cccc2occc12)[C@H]1CC[C@@]2(CCCO2)C[C@@H]1N1CCCC1", "Potency": "inactive"}, {"smiles": "CCOC(=O)Cl", "Potency": "inactive"}, {"smiles": "N#CSc1ccc([N+](=O)[O-])cc1[N+](=O)[O-]", "Potency": "active: 6.11 µM"}, {"smiles": "CCC(C)(OOC(C)(C)C)OOC(C)(C)C", "activity change, negative = cytotoxicity": "inactive: -6.54% [at 19 µM]"}, {"smiles": "CN(N=O)C(=N)N[N+](=O)[O-]", "Potency": "inactive"}, {"smiles": "CN(C(=O)Cc1ccc(Cl)c(Cl)c1)[C@H]1CC[C@@]2(CCCO2)C[C@@H]1N1CCCC1", "Potency": "inactive"}, {"smiles": "ClP(Cl)c1ccccc1", "Potency": "inactive"}, {"smiles": "CCOP(=S)(CC)Sc1ccccc1", "note": "(centres undefined)", "Potency": "inactive"}, {"smiles": "CN(C(=O)Cc1ccccc1)[C@H]1CC[C@@]2(CCCO2)C[C@@H]1N1CCCC1", "Potency": "inactive"}, {"smiles": "CCCCC(CC)CO[P+](=O)OCC(CC)CCCC", "note": "(centres undefined)", "Potency": "inactive"}, {"smiles": "COC(=O)Cl", "Potency": "inactive"}, {"smiles": "CCCCOP(OCCCC)OCCCC", "Potency": "inactive"}, {"smiles": "CCCCO[P+](=O)OCCCC", "Potency": "inactive"}, {"smiles": "O=[P+](Oc1ccccc1)Oc1ccccc1", "Potency": "inactive"}, {"smiles": "NC(=O)Nc1ccc([As](=O)(O)O)cc1", "Potency": "inactive"}]}]}
